Values of other authors, collected in article PMC3653948, “PDZ Domain-Mediated Interactions of G Protein-Coupled Receptors with Postsynaptic Density Protein 95: Quantitative Characterization of Interactions” (PLoS ONE, 2013).

Biological target: CFTR (Homo sapiens) (UniProt P13569)
Settings: cited from earlier work

For CAL PDZ (from UniProt Q9HD26), the Kd is listed as over 600 µM.
